Paper PMC10823771, “Investigating the replacement of carboxylates with carboxamides to modulate the safety and efficacy of platinum(II) thioether cyanide scavengers” (2023)

Assays:
[1] = test system: Sprague Dawley rats; test: Sprague Dawley toxicity model; settings: single IP injection, approximately 5 times the efficacious dose (1338 µmol/m^2), after 5 days
[2] = test system: Zebrafish larvae; settings: formulation pH 6.8 and higher, stored 5 days; 50 µM cyanide

Substance	BUN, creatinine, and phosphate levels [1]	efficacy in cyanide challenged zebrafish survival assay [2]
bis-(L-S-methylcysteine)-(S,N)platinum(II) dichloride	significant increases	–
bis-(L-methionine amide (S,N)platinum(II) dichloride	–	decreased efficacy
